The record followed here is patent publication US11566000B2, “Crystalline form of sofpironium bromide and preparation method thereof” (dated 2023).

This series can be described thus: Hygroscopic property and stability test of crystalline forms (dynamic vapor sorption: DVS).
The mark [1] stands for this setting: DVS sorption-desorption isotherm 0 to 95% RH, 25° C.
Where [2] appears, read: DVS sorption-desorption isotherm 0 to 95% RH, 25° C., crystalline form after the test.
The mark [3] stands for this setting: cycle that humidity is increased from 0% RH to 95% RH, and returned to 0% RH.

Consider `CCOC(=O)C[N@@+]1(C)CC[C@@H](OC(=O)[C@](O)(c2ccccc2)C2CCCC2)C1.[Br-]`, for which the “Hygroscopicity (weight change)” value under setting [1] was “Not observed (“Not observed” means that the weight increased by 3% or less)”. The crystal transition result is given as “Observed” under setting [2] and “crystal transition was observed” under setting [3].
Taken in the same sequence, the figures for `CCOC(=O)C[N@+]1(C)CC[C@@H](OC(=O)[C@](O)(c2ccccc2)C2CCCC2)C1.[Br-]` were “Not observed (“Not observed” means that the weight increased by 3% or less)”, “Not observed” and “crystal transition was not observed”.
